For one compound, Ratio Ki results are on record in ChEMBL document CHEMBL2396652 (Bioorg Med Chem Lett, 2013).

For experiment [1], the species on record is Homo sapiens. The experiment can be described thus: Selectivity ratio of Ki for delta opioid receptor (unknown origin) to Ki for kappa opioid receptor (unknown origin).
Experiment [2] is filed under the species Homo sapiens. The experiment can be described thus: Selectivity ratio of Ki for mu opioid receptor (unknown origin) to Ki for kappa opioid receptor (unknown origin).

For the compound `N=C(N)Nc1ccc2[nH]c3c(c2c1)C[C@@]1(O)[C@H]2Cc4ccc(O)c5c4[C@@]1(CCN2CC1CC1)[C@H]3O5`, the Ratio Ki in experiment [1] amounted to 250; in experiment [2], 120.
